Values quoted from earlier work in patent US20050075275A1, “Regulation of the apj receptor for use in the treatment or prophylaxis of cardiac diseases” (Bayer Aktiengesellschaft, priority 2001, published 2005).
Like-named read-outs stand apart in the source and are kept apart here.

Amino acid sequences for entries named in this document (tags omitted). A change or cut given only in a name is not applied to a line headed by its entry.
UniProt Q9JHG3: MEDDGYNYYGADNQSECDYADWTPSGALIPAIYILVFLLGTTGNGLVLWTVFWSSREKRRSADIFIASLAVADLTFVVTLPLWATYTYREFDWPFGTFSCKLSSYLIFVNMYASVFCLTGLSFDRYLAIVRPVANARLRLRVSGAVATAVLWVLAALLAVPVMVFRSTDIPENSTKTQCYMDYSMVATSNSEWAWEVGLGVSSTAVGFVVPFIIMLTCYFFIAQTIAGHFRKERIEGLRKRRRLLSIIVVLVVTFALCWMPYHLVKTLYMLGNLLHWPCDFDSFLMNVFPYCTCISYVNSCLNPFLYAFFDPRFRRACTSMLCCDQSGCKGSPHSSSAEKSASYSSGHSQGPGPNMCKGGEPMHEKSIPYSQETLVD

How the values were obtained:
APJ receptor [1] = target: T1, APJ receptor (Rattus norvegicus, UniProt Q9JHG3); settings: rats, systemic administration; cited from earlier work
APJ receptor [2] = target: T1, APJ receptor; settings: dehydrogenated rats, direct administration in the brain; cited from earlier work

apelin
blood pressure (APJ receptor [1]): reduction in blood pressure | heart rate (APJ receptor [1]): without a change in the heart rate | blood pressure (APJ receptor [2]): without having an effect on blood pressure | water uptake (APJ receptor [2]): inhibition of water uptake
